Reference: ChEMBL document CHEMBL1155340, “Discovery of a novel azepine series of potent and selective 5-HT2C agonists as potential treatments for urinary incontinence” (Bioorg Med Chem Lett, 2009)

By UniProt entry, the sequences of proteins in these tests, tags left out. Where a name states a change or a piece, a line headed by the entry shows the natural chain unless it says otherwise.
UniProt P41595, whole entry: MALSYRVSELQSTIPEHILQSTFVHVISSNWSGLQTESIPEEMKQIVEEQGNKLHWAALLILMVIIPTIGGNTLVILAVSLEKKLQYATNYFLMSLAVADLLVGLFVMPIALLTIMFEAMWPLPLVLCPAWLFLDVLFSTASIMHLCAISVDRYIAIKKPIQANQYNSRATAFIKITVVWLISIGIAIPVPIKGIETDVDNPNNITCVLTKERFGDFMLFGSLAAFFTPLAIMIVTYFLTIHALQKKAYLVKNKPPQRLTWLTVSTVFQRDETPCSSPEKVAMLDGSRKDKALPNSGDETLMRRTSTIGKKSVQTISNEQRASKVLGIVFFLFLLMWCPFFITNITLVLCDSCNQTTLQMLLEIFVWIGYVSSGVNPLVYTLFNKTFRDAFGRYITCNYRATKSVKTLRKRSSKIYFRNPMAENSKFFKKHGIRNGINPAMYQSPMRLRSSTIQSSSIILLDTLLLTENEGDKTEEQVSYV
UniProt P28335: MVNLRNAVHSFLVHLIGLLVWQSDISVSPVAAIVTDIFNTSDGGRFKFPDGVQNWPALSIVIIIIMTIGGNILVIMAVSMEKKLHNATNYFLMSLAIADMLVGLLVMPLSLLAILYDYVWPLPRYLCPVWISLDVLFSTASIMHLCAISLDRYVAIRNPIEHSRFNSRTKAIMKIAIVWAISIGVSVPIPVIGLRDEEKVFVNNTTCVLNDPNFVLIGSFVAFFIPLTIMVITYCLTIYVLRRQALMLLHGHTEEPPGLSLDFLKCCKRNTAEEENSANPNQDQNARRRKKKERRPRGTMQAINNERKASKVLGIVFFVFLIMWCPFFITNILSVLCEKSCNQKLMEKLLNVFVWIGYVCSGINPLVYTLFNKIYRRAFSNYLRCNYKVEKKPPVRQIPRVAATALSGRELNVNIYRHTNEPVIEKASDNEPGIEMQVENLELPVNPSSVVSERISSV

Columns and labels:
[1] = biological target: 5-hydroxytryptamine receptor 2B (Homo sapiens, UniProt P41595)
[2] = biological target: 5-hydroxytryptamine receptor 2C (Homo sapiens, UniProt P28335)

Clc1cccc(N2CCNCC2)c1 [CHLOROPHENYLPIPERAZINE]
EC50 [1]: 125 nM
EC50 [2]: 170 nM
